{"sequences": {"note": "Chains of the proteins cited; added tags and fusions are not shown.", "UniProt P49841, whole entry": "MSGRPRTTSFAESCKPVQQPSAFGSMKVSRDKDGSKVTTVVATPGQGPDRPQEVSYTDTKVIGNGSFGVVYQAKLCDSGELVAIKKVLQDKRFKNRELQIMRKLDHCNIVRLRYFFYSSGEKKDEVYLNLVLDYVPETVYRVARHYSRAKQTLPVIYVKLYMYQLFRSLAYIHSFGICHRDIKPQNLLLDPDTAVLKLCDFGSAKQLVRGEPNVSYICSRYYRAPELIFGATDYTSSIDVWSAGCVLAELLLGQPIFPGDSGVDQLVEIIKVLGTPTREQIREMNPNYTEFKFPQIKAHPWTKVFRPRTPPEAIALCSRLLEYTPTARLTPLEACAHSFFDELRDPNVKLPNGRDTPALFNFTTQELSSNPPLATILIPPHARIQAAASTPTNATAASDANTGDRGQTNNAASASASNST", "UniProt P49840, whole entry": "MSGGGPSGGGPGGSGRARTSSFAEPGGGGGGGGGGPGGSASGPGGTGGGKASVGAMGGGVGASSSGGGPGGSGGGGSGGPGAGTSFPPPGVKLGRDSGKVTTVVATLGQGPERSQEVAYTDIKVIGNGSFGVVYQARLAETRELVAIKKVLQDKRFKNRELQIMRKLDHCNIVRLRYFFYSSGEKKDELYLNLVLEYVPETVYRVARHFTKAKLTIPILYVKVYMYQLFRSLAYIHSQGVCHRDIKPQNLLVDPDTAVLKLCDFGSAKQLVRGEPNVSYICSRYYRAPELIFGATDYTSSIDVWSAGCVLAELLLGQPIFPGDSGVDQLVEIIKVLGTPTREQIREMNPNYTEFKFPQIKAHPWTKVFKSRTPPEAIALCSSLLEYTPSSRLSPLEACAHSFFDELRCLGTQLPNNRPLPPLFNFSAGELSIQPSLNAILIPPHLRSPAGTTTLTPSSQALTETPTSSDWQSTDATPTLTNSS"}, "source": "patent US7449465B2", "about": "“Triazolopyrimidine derivatives as glycogen synthase kinase 3 inhibitors” (Janssen Pharmaceutica, N.V., priority 2003, dated 2008)", "key": {"GSK3β": {"target": "GSK3β (Homo sapiens, UniProt P49841)", "test": "GSK3beta assay (SPA, biotinylated phosphorylated CREB peptide, ATP-P33)", "conditions": "ranges of pIC50 (−log IC50 (M)); 1 μM ATP, room temperature, one hour", "description": "(§1) GSK3beta assays were performed at room temperature in a 100 μl reaction volume of 25 mM Tris (pH 7.4) containing 10 mM MgCl2.6H2O, 1 mM DTI, 0.1 mgiml BSA, 5% glycerol and containing 5.7 ng/μl GSK3β, 5 μM biotinylated phosphorylated CREB peptide, 1 μM ATP, 0.85 μCi/ml ATP-P^33 and a suitable amount of a test compound of formula (I). After one hour, the reaction was terminated by adding 70 μl of Stop mix (0.1 mM ATP, 5 mg/ml streptavidin coated PVT SPA bead pH 11.0). The beads to which the phosphorylated CREB peptide is attached were allowed to settle overnight and the radioactivity of the beads was counted in a microtiterplate scintillation counter and compared with the results obtained in a control experiment (without the presence of a test compound) in order to determine the percentage of GSK3β inhibition. The IC50 value, i.e. the concentration (M) of the test compound at which 50% of GSK3β is inhibited, was calculated from the dose response curve obtained by performing the above-described GSK3β assay in the presence of different amounts of the test compound."}, "GSK3alpha": {"target": "GSK3alpha (Homo sapiens, UniProt P49840)", "test": "GSK3alpha assay (same as the GSK3beta assay, 0.25 ng/μl GSK3alpha)", "conditions": "ranges of pIC50 (−log IC50 (M)), 1 μM ATP", "description": "as §1\nThe GSK3alpha assay was performed in the same way as described above for the GSK3beta assay except for the concentration of GSK3alpha which is 0.25 ng/μl."}}}
{"compound": "CN1CCN(C(=O)c2ccc(Nc3ncc4nnn(-c5cccc(CCO)c5)c4n3)cc2)CC1", "values": [{"measurement": "GSK3b pIC50", "setting": "GSK3β", "result": ">8"}, {"measurement": "GSK3a pIC50", "setting": "GSK3alpha", "result": ">8"}]}
